Test results from patent publication US20180318473A1, “DRUGS WITH IMPROVED HYDROPHOBICITY FOR INCORPORATION IN MEDICAL DEVICES” (Abraxis BioScience, LLC, priority 2005, published 2018).
pIC50: −log10 of the molar value.

System: MX-1 mammary tumor cells

## Benzoyl rapamycin [Compound 23]
  pIC50: 5.00
